Earlier results as cited in paper PMC7766225, “Structure-Based Discovery and Bioactivity Evaluation of Novel Aurora-A Kinase Inhibitors as Anticancer Agents via Docking-Based Comparative Intermolecular Contacts Analysis (dbCICA)” (Molecules, 2020).

Target: T1, Aurora-A kinase (Homo sapiens, UniProt O14965)
T1 sequence (O14965 1-403): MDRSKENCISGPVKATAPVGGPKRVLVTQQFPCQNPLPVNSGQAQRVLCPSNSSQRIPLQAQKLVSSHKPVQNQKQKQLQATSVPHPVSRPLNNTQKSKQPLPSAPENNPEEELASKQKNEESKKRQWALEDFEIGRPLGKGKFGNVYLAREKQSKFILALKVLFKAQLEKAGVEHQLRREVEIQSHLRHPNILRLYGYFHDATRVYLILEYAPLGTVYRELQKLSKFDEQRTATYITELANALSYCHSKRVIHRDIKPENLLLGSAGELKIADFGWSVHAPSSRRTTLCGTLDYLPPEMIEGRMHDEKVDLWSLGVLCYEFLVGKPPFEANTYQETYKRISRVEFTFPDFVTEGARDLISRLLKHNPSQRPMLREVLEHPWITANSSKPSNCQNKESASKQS
Parameters: purchased Invitrogen (Carlsbad, CA, USA)
Settings: Table S1, ChEMBL; ref Bebbington, et al., 2009; cited from earlier work

SMILES	Ki [nM]
COc1ccccc1Sc1nc(Nc2cc(C)[nH]n2)c2ccccc2n1 [Compound 41]	24
Cc1cc(Nc2nc(Sc3cccc(Cl)c3Cl)nc3ccccc23)n[nH]1 [Compound 37]	3
CCC(=O)Nc1ccc(Sc2nc(Nc3cc(C)[nH]n3)c3ccccc3n2)cc1 [Compound 47]	1
Cc1cc(Nc2nc(Sc3ccccc3)nc3ccccc23)n[nH]1 [Compound 33]	20
Cc1cc(Nc2nc(Sc3ccccc3Cl)nc3ccccc23)n[nH]1 [Compound 34]	5
Cc1cc(Nc2nc(Sc3c(Cl)cccc3Cl)nc3ccccc23)n[nH]1 [Compound 39]	5
CC(=O)Nc1ccc(Sc2nc(Nc3cc[nH]n3)c3ccccc3n2)cc1 [Compound 48]	24
Cc1cc(Nc2nc(Nc3ccccc3)nc3ccccc23)n[nH]1 [Compound 30]	24
COc1ccc(Sc2nc(Nc3cc(C)[nH]n3)c3ccccc3n2)cc1OC [Compound 43]	17
Cc1cc(Nc2nc(Sc3ccc(Cl)c(Cl)c3)nc3ccccc23)n[nH]1 [Compound 40]	2
Cc1cc(Nc2nc(Sc3ccc(Cl)cc3Cl)nc3ccccc23)n[nH]1 [Compound 38]	2
Cc1cc(Nc2nc(Sc3ccc(NC(=O)OC(C)(C)C)cc3)nc3ccccc23)n[nH]1 [Compound 46]	9
Cc1cc(Nc2nc(Sc3ccc4ccccc4c3)nc3ccccc23)n[nH]1 [Compound 44]	1
Cc1cc(Nc2nc(Oc3ccccc3)nc3ccccc23)n[nH]1 [Compound 32]	36
COc1ccc(Sc2nc(Nc3cc(C)[nH]n3)c3ccccc3n2)cc1 [Compound 42]	9
Cc1cc(Nc2nc(Sc3ccc(Cl)cc3)nc3ccccc23)n[nH]1 [Compound 36]	6
Cc1cc(Nc2nc(Sc3cccc(Cl)c3)nc3ccccc23)n[nH]1 [Compound 35]	4
Cc1cc(Nc2nc(N(C)c3ccccc3)nc3ccccc23)n[nH]1 [Compound 31]	17
